As a reminder, the IC50 is the point on the concentration scale where inhibition reaches its midpoint.

Sequences of proteins named here, by UniProt entry; tags and fusion partners are left off.
UniProt P31639, whole entry: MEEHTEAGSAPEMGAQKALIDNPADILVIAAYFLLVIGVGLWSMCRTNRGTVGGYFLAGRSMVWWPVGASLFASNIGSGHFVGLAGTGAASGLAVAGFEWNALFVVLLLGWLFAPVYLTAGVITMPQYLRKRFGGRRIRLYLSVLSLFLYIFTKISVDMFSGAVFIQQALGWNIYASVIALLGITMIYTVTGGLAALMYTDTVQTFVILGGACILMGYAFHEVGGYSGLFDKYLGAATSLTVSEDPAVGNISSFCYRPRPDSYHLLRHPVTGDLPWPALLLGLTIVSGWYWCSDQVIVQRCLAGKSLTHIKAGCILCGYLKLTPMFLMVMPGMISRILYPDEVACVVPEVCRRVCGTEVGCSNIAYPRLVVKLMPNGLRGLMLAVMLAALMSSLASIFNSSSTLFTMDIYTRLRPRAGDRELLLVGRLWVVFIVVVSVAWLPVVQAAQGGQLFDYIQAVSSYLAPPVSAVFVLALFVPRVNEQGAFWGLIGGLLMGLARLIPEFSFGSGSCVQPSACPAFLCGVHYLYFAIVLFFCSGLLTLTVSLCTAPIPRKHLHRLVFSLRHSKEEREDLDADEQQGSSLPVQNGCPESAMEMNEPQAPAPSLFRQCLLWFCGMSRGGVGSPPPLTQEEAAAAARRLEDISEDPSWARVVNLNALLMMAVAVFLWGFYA
UniProt P13866, whole entry: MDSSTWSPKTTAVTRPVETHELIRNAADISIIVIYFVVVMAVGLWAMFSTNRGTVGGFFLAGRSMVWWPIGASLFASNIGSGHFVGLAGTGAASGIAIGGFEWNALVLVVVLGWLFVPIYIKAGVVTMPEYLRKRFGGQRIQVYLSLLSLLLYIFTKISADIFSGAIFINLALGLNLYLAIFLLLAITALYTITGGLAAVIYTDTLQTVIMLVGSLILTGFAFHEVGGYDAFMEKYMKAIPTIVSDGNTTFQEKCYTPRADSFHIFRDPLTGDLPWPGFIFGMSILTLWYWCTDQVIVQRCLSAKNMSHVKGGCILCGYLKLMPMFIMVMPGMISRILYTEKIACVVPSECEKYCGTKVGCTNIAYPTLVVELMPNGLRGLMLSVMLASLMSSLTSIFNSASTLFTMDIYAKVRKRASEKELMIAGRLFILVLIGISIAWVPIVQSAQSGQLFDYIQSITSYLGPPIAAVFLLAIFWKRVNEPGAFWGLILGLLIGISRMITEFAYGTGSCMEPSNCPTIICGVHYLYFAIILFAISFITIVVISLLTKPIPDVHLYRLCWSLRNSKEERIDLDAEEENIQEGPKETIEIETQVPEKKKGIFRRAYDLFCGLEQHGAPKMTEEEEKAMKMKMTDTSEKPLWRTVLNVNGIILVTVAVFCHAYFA

The results in this text go back to patent US20110059910A1, “Novel aromatic fluoroglycoside derivatives, pharmaceuticals comprising said compounds and the use thereof” (SANOFI-AVENTIS, priority 2008, published 2011).

The target of assay [1] is human sodium-dependent glucose transporter 2 (SGLT2, SLC5A2) (Homo sapiens, UniProt P31639). Description: Inhibition of the transport activity of human SGLT2 in vitro (α-MDG uptake in CHO-TRex-hSGLT2 cells). Particulars: read-out: IC50 SGLT2, 50 μM α-MDG, 120 min at 37° C. An excerpt: Inhibition of the Transport Activity of the Human Sodium-Dependent Glucose Transporter 2 (SGLT2, SLC5A2) In Vitro
1. Cloning of an Expression Vector for Human SGLT2
The cDNA for human SGLT2 was introduced into the pcDNA4/TO vector (Invitrogen) by means of standard methods of molecular biology as described in Sambrook et al. (Molecular Cloning, A Laboratory Manual, Second Edition). […] Bases 21 to 2039 correspond to the complete coding region of human SGLT2.
2. Production of a Recombinant Cell Line with Inducible Expression of Human SGLT2
The expression vector for human SGLT2 was introduced into CHO-TREx cells (Invitrogen) by means of FuGene6 lipofection (Roche). […]
CHO-TRex-hSGLT2 cells were seeded in cell culture medium in a concentration of 50 000 cells per well in Cytostar-T scintillating 96-well plates (Amersham Biosciences) and cultivated for 24 h. […] After an incubation time of 120 min at 37° C., the reaction was stopped by adding 50 μl/well of 10 mM methyl-α-D-glucopyranoside in transport assay buffer (4° C.), and the radioactivity taken up into the cells was determined in a MicroBeta Scintillation Microplate Reader (Wallac).
The half-maximum inhibiting action of the test substances (IC50 value) was determined as follows: • 1. […] This is the measurement in the absence of substance, measured in sodium-containing transport assay buffer. • 2. […]

Assay [2] concerns the target human sodium-dependent glucose transporter 1 (SGLT1, SLC5A1) (Homo sapiens, UniProt P13866). Description: Inhibition of the transport activity of human SGLT1 in vitro (α-MDG uptake in CHO-TRex-hSGLT1 cells). To be noted: read-out: IC50 SGLT1, 50 μM α-MDG, 30 min at room temperature. An excerpt:
Inhibition of the Transport Activity of the Human Sodium-Dependent Glucose Transporter 1 (SGLT1, SLC5A1) In Vitro:
1. Cloning of an Expression Vector for Human SGLT1
The cDNA for human SGLT1 was introduced into the pcDNA4/TO vector (Invitrogen) by means of standard methods of molecular biology as described in Sambrook et al. (Molecular Cloning, A Laboratory Manual, Second Edition). […] Bases 11 to 2005 correspond to the complete coding region of human SGLT1.
2. Production of a Recombinant Cell Line with Inducible Expression of Human SGLT1
The expression vector for human SGLT1 was introduced into CHO-TRex cells (Invitrogen) by means of FuGene6 lipofection (Roche). […]
CHO-TRex-hSGLT1 cells were seeded in cell culture medium in a concentration of 50 000 cells per well in Cytostar-T scintillating 96-well plates (Amersham Biosciences) and cultivated for 24 h. […] After an incubation time of 30 min at room temperature, the reaction was stopped by adding 50 μl/well of 10 mM methyl-α-D-glucopyranoside in transport assay buffer (4° C.), and the radioactivity taken up into the cells was determined in a MicroBeta Scintillation Microplate Reader (Wallac).
The half-maximum inhibiting action of the test substances (IC50 value) was determined as follows: • 4. […] This is the measurement in the absence of substance, measured in sodium-containing transport assay buffer. • 5. […]

With `COc1ccc(Cc2cc([C@@H]3O[C@H](CO)[C@@H](F)[C@H](O)[C@H]3O)ccc2C)cc1`, the IC50 is 0.0079 µM in assay [1] and 0.459 µM in assay [2].

Take `COc1ccc(Cc2cc([C@@H]3O[C@H](CO)[C@@H](F)[C@H](O)[C@H]3O)ccc2Cl)cn1`: the IC50 was determined as 0.295 µM in assay [1] and 3.7 µM in assay [2].
